The target in the data set is BCRP (Homo sapiens, UniProt Q9UNQ0). In words: Bidirectional transport assay in Caco-2 cells, BCRP substrate assessment. Particulars: no inhibitor. A general note: Passage across Caco-2 layers is used to estimate intestinal permeability.

The chains behind the UniProt entries cited, without tags or fusion partners. Where a name states a change or a piece, a line headed by the entry shows the natural chain unless it says otherwise.
UniProt Q9UNQ0: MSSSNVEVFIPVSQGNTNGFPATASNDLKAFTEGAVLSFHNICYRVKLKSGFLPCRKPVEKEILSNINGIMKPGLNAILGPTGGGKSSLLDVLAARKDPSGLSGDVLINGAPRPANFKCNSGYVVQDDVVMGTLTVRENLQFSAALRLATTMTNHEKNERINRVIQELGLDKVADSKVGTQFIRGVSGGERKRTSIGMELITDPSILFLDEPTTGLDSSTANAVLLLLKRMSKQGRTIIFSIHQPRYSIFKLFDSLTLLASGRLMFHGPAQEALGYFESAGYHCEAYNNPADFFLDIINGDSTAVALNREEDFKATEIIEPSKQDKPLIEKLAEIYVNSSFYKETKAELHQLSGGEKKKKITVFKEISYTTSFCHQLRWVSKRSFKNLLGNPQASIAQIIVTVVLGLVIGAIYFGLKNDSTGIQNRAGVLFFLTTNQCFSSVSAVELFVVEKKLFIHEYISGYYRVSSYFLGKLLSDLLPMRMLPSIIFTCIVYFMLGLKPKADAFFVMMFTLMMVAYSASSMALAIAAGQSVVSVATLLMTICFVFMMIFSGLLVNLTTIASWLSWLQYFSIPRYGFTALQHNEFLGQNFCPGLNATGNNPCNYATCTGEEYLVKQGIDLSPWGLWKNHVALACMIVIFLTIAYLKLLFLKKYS

As usually defined, the efflux ratio is the permeability from basolateral to apical divided by that in the opposite direction, in the common usage. Turning to estrone sulfate, the efflux ratio stood at 33.6.

Source of the values: paper PMC12621185, “Design, Syntheses, and Pharmacological Evaluations of Core Ring Expanded Fentanyl Analogues as Potential Counteracting Agents Against Fentanyl Induced Respiratory Depression” (2025).
